## Antibody variant affinities, Ab-14 light chain, assay B

Values reported by Li et al. 2023, doi:10.1038/s41467-023-39022-2 (FLAb copy).

Target peptide (SARS-CoV-2 spike, HR2 region): PDVDLGDISGINAS

Parent scFv Ab-14: VH joined to VL by the linker GGGGSGGGGSGGGGS. Changes lie in the light chain CDRs alone.
VH: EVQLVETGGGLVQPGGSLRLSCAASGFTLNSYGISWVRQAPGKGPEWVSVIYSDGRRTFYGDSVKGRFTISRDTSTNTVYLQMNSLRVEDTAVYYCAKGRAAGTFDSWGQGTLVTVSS
VL: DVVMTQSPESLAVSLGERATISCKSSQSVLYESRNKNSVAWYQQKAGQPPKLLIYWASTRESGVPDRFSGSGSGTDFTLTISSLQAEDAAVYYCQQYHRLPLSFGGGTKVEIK

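The parent was found by panning a naive human phage display library on the peptide. These sequences belong to a second round, designed from the earlier measurements on random variants of the parent. Several design methods are mixed in this list. Affinity was read by AlphaSeq, a pooled yeast mating assay with surface-displayed partners. Pairs that bind mate more often; barcode pairs of the diploids are counted by sequencing. Read counts were normalised to the haploid input and turned into Kd by a linear fit to BCL2-family pairs of known affinity, for each replicate. There are six technical replicates.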

The whole VL of each variant is written out. Variants here have more than six changes. Values are apparent Kd, the geometric mean of the replicates that gave a signal; lower means stronger binding. Background: pairings of all light chain designs with three empty control strains gave a value in 4% of cases (median 430 nM, 5th percentile 38 nM). Values in that range, when seen in few replicates, are hard to tell from nonspecific mating.

VL	Kd	detected
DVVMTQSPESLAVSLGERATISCKLDGSDNYESRNKNSVAWYQQKAGQPPKLLIYEASTRESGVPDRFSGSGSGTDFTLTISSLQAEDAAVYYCQAYHRLPLSFGGGTKVEIK	3.5 nM	6/6
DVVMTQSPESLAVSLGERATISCMISDLTMYGSRSVNSVAWYQQKAGQPPKLLIYDLSTRGSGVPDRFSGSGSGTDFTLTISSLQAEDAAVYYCQQYDRLPLSFGGGTKVEIK	3.8 nM	6/6
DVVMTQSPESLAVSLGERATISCTIGQTLMIGTRNRSNVAWYQQKAGQPPKLLIYEVSERLNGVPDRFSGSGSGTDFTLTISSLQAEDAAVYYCQQYDRLPLMFGGGTKVEIK	5.4 nM	6/6
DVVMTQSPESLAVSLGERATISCKVSEFMRGLLMRKDSIAWYQQKAGQPPKLLIYDNNTRSNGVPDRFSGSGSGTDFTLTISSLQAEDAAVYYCQQYDRLPLSFGGGTKVEIK	360 nM	5/6
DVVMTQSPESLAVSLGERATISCKITALMRFEQKNSNNIAWYQQKAGQPPKLLIYEVSMRTKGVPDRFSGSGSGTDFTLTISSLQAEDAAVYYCQQYVRLPLAFGGGTKVEIK	540 pM	6/6
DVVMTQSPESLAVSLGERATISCKISAVMENQLKNRNSVAWYQQKAGQPPKLLIYELVTRLNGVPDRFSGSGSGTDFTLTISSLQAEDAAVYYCQQYNRLPLSFGGGTKVEIK	11 nM	6/6
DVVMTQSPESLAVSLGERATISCSLMQVGGYESNYKNSIAWYQQKAGQPPKLLIYDLRTRESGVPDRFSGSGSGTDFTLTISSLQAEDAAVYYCQQYHRLPLSFGGGTKVEIK	2.9 nM	6/6
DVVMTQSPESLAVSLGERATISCKFPQEVWYQSRNKNSVAWYQQKAGQPPKLLIYDASTREQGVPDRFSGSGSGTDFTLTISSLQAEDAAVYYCQQYHRLPLSFGGGTKVEIK	1.1 nM	6/6
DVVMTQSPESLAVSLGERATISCKLSWDCTTDLNRMSSIAWYQQKAGQPPKLLIYESEVAVDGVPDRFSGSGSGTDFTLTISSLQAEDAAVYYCQQYAHLPLTFGGGTKVEIK	380 nM	5/6
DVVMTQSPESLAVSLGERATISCIFSQSVLMGNMKRNSVAWYQQKAGQPPKLLIYQASTRFNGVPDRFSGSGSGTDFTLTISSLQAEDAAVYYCQQYDRLPLIFGGGTKVEIK	6.3 nM	6/6
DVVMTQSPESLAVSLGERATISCHVHMEMAEEKEIRHNIAWYQQKAGQPPKLLIYDASMRYAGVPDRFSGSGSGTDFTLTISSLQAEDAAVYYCQQYVRLPLGFGGGTKVEIK	630 pM	6/6
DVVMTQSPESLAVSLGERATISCTISQMTSLFSQTINNVAWYQQKAGQPPKLLIYEVSMREEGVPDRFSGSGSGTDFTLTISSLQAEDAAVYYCQQYDRLPLVFGGGTKVEIK	2.8 nM	5/6
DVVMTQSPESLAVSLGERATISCMVSQIMLWGLHAKNSIAWYQQKAGQPPKLLIYEAQTRLNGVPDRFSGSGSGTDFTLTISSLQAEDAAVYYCQQYDRLPLIFGGGTKVEIK	58 nM	3/6
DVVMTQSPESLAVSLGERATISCSMQFYTENFAEIGQNIAWYQQKAGQPPKLLIYDVSATTAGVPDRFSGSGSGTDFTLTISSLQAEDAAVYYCQQYHRLPLAFGGGTKVEIK	59 nM	5/6
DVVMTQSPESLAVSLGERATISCIITQSVMQESRNKSNVAWYQQKAGQPPKLLIYNTSEREPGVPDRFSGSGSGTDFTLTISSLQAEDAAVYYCQQYDRLPLIFGGGTKVEIK	81 nM	6/6
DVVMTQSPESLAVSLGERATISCTLMQFGGYESNAHNSIAWYQQKAGQPPKLLIYDLRTRESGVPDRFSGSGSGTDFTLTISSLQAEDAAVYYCQQYHRLPLSFGGGTKVEIK	3.2 nM	6/6
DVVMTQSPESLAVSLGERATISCRVTNELGKEMERKQSVAWYQQKAGQPPKLLIYETEQRCMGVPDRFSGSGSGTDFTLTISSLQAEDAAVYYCQQYARLPLIFGGGTKVEIK	3.2 nM	6/6
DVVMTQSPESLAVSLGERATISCRYQMDDNYGKGARNNVAWYQQKAGQPPKLLIYDGAEVRMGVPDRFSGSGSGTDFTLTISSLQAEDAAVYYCQQYARLPLLFGGGTKVEIK	5.6 nM	6/6
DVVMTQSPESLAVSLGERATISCKLSQSTEYESRMKNSVAWYQQKAGQPPKLLIYNASLREQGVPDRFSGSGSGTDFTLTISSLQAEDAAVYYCQQYHRLPLSFGGGTKVEIK	2.2 nM	6/6
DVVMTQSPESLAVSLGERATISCKLSMQYRYETEEKNSIAWYQQKAGQPPKLLIYELVTRMSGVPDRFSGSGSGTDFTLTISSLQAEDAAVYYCQQYHRLPLSFGGGTKVEIK	1.2 nM	3/6
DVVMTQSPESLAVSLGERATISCKLSWDDMSHFNTRSAVAWYQQKAGQPPKLLIYDMTMRAHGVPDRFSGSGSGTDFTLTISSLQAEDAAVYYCQQYNRLPLDFGGGTKVEIK	900 pM	6/6
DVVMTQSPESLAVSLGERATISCALSDWEWAGEENINAVAWYQQKAGQPPKLLIYDRSALEWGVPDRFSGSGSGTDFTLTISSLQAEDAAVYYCQQYQRLPLSFGGGTKVEIK	110 nM	6/6
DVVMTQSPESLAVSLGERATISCKIGATLNTLYEKKNNVAWYQQKAGQPPKLLIYDLVVREEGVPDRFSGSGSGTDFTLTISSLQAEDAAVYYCQQYHRLPLSFGGGTKVEIK	24 nM	6/6
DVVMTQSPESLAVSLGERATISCKFQGMVMMGDRNKNSVAWYQQKAGQPPKLLIYWASTRLQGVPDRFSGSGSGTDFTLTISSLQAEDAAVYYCQQYHRLPLSFGGGTKVEIK	6.4 nM	6/6

Repeated from above, the 2 best binders with a signal in all replicates:

VL	Kd	detected
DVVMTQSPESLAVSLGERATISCKITALMRFEQKNSNNIAWYQQKAGQPPKLLIYEVSMRTKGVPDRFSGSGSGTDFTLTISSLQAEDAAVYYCQQYVRLPLAFGGGTKVEIK	540 pM	6/6
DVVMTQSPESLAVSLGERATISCHVHMEMAEEKEIRHNIAWYQQKAGQPPKLLIYDASMRYAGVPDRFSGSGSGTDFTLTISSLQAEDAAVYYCQQYVRLPLGFGGGTKVEIK	630 pM	6/6

A sequence measured in both rounds can read differently, since the two assays cover different ranges. The authors averaged sequences with at least three values out of six and counted those with two or fewer as poor binders.